Experimental data taken from patent US10562878B2, “Cycloalkylamines as monoamine reuptake inhibitors” (Sunovion Pharmaceuticals Inc., priority 2006, dated 2020).

Chains of the proteins cited; added tags and fusions are not shown.
UniProt P23975, whole entry: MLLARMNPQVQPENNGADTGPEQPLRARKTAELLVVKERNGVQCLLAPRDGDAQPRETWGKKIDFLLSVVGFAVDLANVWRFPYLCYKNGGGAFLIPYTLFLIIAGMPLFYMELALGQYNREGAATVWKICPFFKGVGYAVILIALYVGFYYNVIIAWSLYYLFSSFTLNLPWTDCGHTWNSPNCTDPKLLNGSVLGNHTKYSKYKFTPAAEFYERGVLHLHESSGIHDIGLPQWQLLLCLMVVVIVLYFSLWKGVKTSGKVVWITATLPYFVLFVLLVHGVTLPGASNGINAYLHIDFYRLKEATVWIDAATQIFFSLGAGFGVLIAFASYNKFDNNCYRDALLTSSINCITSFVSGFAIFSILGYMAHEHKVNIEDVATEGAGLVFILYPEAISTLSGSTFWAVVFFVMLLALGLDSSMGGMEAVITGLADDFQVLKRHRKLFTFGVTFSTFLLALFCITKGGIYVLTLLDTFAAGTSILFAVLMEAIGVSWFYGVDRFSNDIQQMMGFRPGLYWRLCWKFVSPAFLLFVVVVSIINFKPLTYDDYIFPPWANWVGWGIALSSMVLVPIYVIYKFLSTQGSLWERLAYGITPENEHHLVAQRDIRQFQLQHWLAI
UniProt P31645, whole entry: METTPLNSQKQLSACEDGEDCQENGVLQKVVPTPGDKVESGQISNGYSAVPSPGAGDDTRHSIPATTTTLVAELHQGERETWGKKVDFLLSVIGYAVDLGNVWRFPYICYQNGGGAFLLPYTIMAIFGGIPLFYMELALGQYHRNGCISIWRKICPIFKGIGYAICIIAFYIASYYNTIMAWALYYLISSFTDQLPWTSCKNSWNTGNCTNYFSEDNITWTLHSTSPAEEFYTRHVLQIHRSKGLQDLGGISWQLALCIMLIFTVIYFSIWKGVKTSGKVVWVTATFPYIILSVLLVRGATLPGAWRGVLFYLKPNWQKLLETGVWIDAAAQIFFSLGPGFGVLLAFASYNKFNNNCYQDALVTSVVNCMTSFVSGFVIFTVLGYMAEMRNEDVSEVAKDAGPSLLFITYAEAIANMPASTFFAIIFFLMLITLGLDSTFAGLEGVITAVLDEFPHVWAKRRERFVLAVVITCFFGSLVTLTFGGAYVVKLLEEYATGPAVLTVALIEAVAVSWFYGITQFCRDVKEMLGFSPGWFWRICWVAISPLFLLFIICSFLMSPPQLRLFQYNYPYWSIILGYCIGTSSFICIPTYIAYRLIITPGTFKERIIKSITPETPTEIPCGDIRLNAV

How the values were obtained:
[1] = molecular target: DA Transporter (DAT) sites in mouse brain (Mus musculus (Mouse), UniProt Q61327); assay: Ex vivo [3H] WIN 35428 binding to DAT sites in mouse brain after oral dosing; conditions: mice, 60 min after treatment
[2] = molecular target: human norepinephrine transporter (Homo sapiens (Human), UniProt P23975); assay: Norepinephrine functional uptake assay, recombinant human transporter in HEK293 or MDCK cells; type: cell-based; conditions: hNET IC50
[3] = molecular target: human serotonin transporter (Homo sapiens (Human), UniProt P31645); assay: Serotonin functional uptake assay, recombinant human transporter in HEK-293 cells; type: cell-based; conditions: hSERT IC50
mice = assay: Mouse tail suspension test; type: in vivo
Rats = assay: Rat forced swim test; type: in vivo

Which “DAT Mean Specific Binding ± S.E.M.” value ([1]; 10 mg/kg PO) does the source give for CN(C)C[C@]1(c2ccc(Cl)c(Cl)c2)CCCC[C@H]1O (relative stereo) [153 E2, trans-2-(3,4-dichlorophenyl)-2-((dimethylamino)methyl)cyclohexanol] here?
Its value is 22015 ± 1912 dpm.

How did the IC50 [2] turn out when CNC[C@@]1(c2ccc(Cl)c(Cl)c2)CCCC[C@H]1O (single isomer, unassigned) [133 E1, cis-2-(3,4-Dichlorophenyl)-2-((methylamino)methyl)cyclohexanol] was run?
The IC50 was 217 nM.

CNC[C@@]1(c2ccc(Cl)c(Cl)c2)CCCC[C@H]1O (single isomer, unassigned) [133 E2, cis-2-(3,4-Dichlorophenyl)-2-((methylamino)methyl)cyclohexanol] was tested. Which IC50 [2] did it give?
Its IC50 is 374 nM.

CNC[C@@]1(c2ccc(Cl)c(F)c2)CCCC[C@H]1O (single isomer, unassigned) [141 E1, cis-2-(4-Chloro-3-fluorophenyl)-2-((methylamino)methyl)cyclohexanol] was tested. Which IC50 [3] did it give?
The IC50 was 3690 nM.

For CNC[C@@]1(c2ccc(Cl)c(F)c2)CCCC[C@H]1O (single isomer, unassigned) [141 E2, cis-2-(4-Chloro-3-fluorophenyl)-2-((methylamino)methyl)cyclohexanol], which IC50 [3] is on record?
Its IC50 is 2770 nM.

How did the IC50 [3] turn out when CNC[C@]1(c2ccc(Cl)c(F)c2)CCCC[C@H]1O (single isomer, unassigned) [142 E2, trans-2-(4-chloro-3-fluorophenyl)-2-((methylamino)methyl)cyclohexanol] was run?
The IC50 was 2320 nM.

For CNCC1(c2ccc(Cl)c(Cl)c2)CCC(C)(O)CC1 (centres unmarked) [Compound 276, 4-(3,4-dichlorophenyl)-1-methyl-4-((methylamino)methyl)cyclohexanol], which “DAT Mean Specific Binding ± S.E.M.” value ([1]; 1 mg/kg PO) is on record?
The value was 18155 ± 2275 dpm.

What about the “Mouse Tail Suspension Mean Immobility Time ± S.E.M.” value (mice; 10 mg/kg PO) of the same compound?
The value was 164.1 ± 5.7.

What about the “Mouse Tail Suspension Mean Immobility Time ± S.E.M.” value (mice; 30 mg/kg PO) of the same compound?
Its value is 160.2 ± 7.2.

For CN(C)CC1(c2ccc(Cl)c(Cl)c2)CCC(C)(O)CC1 (centres unmarked) [Compound 277, 4-(3,4-dichlorophenyl)-4-((dimethylamino)methyl)-1-methylcyclohexanol], which “Mouse Tail Suspension Mean Immobility Time ± S.E.M.” value (mice; 10 mg/kg PO) is on record?
Its value is 164.4 ± 6.8.

And the “Mouse Tail Suspension Mean Immobility Time ± S.E.M.” value (mice; 30 mg/kg PO)?
Its value is 147.1 ± 3.1.

What about the “Rat Forced Swim Climbing (Means ± S.E.M.)” value (shortened to “Rat Forced Swim Climbing”) (Rats; 3 mg/kg PO) of the same compound?
The value was 9.0 ± 1.2.

What about the “Rat Forced Swim Immobility (Means ± S.E.M.)” value (“Rat Forced Swim Immobility” below) (Rats; 3 mg/kg PO) of the same compound?
Its value is 50.4 ± 1.1.

And the “Rat Forced Swim Swimming (Means ± S.E.M.)” value (“Rat Forced Swim Swimming” below) (Rats; 3 mg/kg PO)?
Its value is 0.8 ± 0.3.

What about the “Rat Forced Swim Climbing” value (Rats; 10 mg/kg PO) of the same compound?
Its value is 13.8 ± 2.3.

And the “Rat Forced Swim Immobility” value (Rats; 10 mg/kg PO)?
The value was 42.5 ± 2.6.

And the “Rat Forced Swim Swimming” value (Rats; 10 mg/kg PO)?
The value was 3.7 ± 0.9.

And the “Rat Forced Swim Climbing” value (Rats; 30 mg/kg PO)?
The value was 35.6 ± 5.2.

And the “Rat Forced Swim Immobility” value (Rats; 30 mg/kg PO)?
The value was 14.6 ± 3.5.

And the “Rat Forced Swim Swimming” value (Rats; 30 mg/kg PO)?
Its value is 6.1 ± 1.4.
